Membrane permeability of cyclic peptides

Values of Kelly et al. 2021, doi:10.1021/jacs.0c06115, as listed in CycPeptMPDB.

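The data file gives no further conditions (lipid, pH, time, direction or concentration), and values from different papers need not be comparable. Other peptides of the study may be missing here. Peptides that the database sets to -10, its floor, are left out.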

PAMPA measures passive passage through an artificial lipid membrane. Values are log10 P with P in cm/s, so -5 is more permeable than -7.

* CC(=O)N1CCC[C@@H]1C(=O)N(C)[C@@H](CC(C)C)C(=O)N[C@@H]1C(=O)N[C@@H](CC(C)C)C(=O)N(C)[C@H](CC(C)C)C(=O)N(C)[C@@H](CC(C)C)C(=O)N(C)[C@H](C)C(=O)N[C@@H](CC(C)C)C(=O)N2CCC[C@H]2C(=O)O[C@@H]1C: PAMPA -5.45 (log10 cm/s)
* CC(=O)N1CCC[C@@H]1C(=O)N(C)[C@H](CC(C)C)C(=O)N[C@@H]1C(=O)N(C)[C@@H](CC(C)C)C(=O)N(C)[C@@H](CC(C)C)C(=O)N(C)[C@H](CC(C)C)C(=O)N(C)[C@@H](C)C(=O)N[C@H](CC(C)C)C(=O)N2CCC[C@@H]2C(=O)O[C@@H]1C: PAMPA -5.09 (log10 cm/s)
* CC(=O)N1CCC[C@H]1C(=O)N(C)[C@H](CC(C)C)C(=O)N[C@@H]1C(=O)N[C@H](CC(C)C)C(=O)N[C@H](CC(C)C)C(=O)N[C@@H](CC(C)C)C(=O)N(C)[C@H](C)C(=O)N[C@H](CC(C)C)C(=O)N2CCC[C@H]2C(=O)O[C@@H]1C: PAMPA -6.09 (log10 cm/s)
* CC(=O)N1CCC[C@@H]1C(=O)N(C)[C@H](CC(C)C)C(=O)N[C@@H]1C(=O)N[C@H](CC(C)C)C(=O)N[C@H](CC(C)C)C(=O)N[C@H](CC(C)C)C(=O)N[C@@H](C)C(=O)N[C@@H](CC(C)C)C(=O)N2CCC[C@H]2C(=O)O[C@@H]1C: PAMPA -6.38 (log10 cm/s)
* CC(=O)N1CCC[C@@H]1C(=O)N(C)[C@@H](CC(C)C)C(=O)N[C@@H]1C(=O)N(C)[C@@H](CC(C)C)C(=O)N[C@@H](CC(C)C)C(=O)N(C)[C@@H](CC(C)C)C(=O)N[C@@H](C)C(=O)N[C@@H](CC(C)C)C(=O)N2CCC[C@@H]2C(=O)O[C@@H]1C: PAMPA -5.85 (log10 cm/s)
* CC(=O)N1CCC[C@@H]1C(=O)N(C)[C@@H](CC(C)C)C(=O)N[C@@H]1C(=O)N[C@@H](CC(C)C)C(=O)N[C@H](CC(C)C)C(=O)N(C)[C@@H](CC(C)C)C(=O)N[C@@H](C)C(=O)N[C@@H](CC(C)C)C(=O)N2CCC[C@@H]2C(=O)O[C@@H]1C: PAMPA -5.86 (log10 cm/s)
* CC(=O)N1CCC[C@H]1C(=O)N(C)[C@@H](CC(C)C)C(=O)N[C@@H]1C(=O)N(C)[C@H](CC(C)C)C(=O)N(C)[C@@H](CC(C)C)C(=O)N(C)[C@@H](CC(C)C)C(=O)N(C)[C@H](C)C(=O)N[C@H](CC(C)C)C(=O)N2CCC[C@H]2C(=O)O[C@@H]1C: PAMPA -5.41 (log10 cm/s)
* CC(=O)N1CCC[C@H]1C(=O)N(C)[C@@H](CC(C)C)C(=O)N[C@@H]1C(=O)N(C)[C@H](CC(C)C)C(=O)N[C@H](CC(C)C)C(=O)N(C)[C@@H](CC(C)C)C(=O)N(C)[C@@H](C)C(=O)N[C@@H](CC(C)C)C(=O)N2CCC[C@H]2C(=O)O[C@@H]1C: PAMPA -5.31 (log10 cm/s)
* CC(=O)N1CCC[C@H]1C(=O)N(C)[C@H](CC(C)C)C(=O)N[C@@H]1C(=O)N[C@H](CC(C)C)C(=O)N[C@H](CC(C)C)C(=O)N[C@@H](CC(C)C)C(=O)N(C)[C@@H](C)C(=O)N[C@H](CC(C)C)C(=O)N2CCC[C@H]2C(=O)O[C@@H]1C: PAMPA -5.53 (log10 cm/s)
* CC(=O)N1CCC[C@H]1C(=O)N(C)[C@@H](CC(C)C)C(=O)N[C@@H]1C(=O)N(C)[C@H](CC(C)C)C(=O)N[C@H](CC(C)C)C(=O)N(C)[C@H](CC(C)C)C(=O)N(C)[C@H](C)C(=O)N[C@@H](CC(C)C)C(=O)N2CCC[C@H]2C(=O)O[C@@H]1C: PAMPA -5.24 (log10 cm/s)
* CC(=O)N1CCC[C@@H]1C(=O)N(C)[C@@H](CC(C)C)C(=O)N[C@@H]1C(=O)N[C@H](CC(C)C)C(=O)N[C@H](CC(C)C)C(=O)N(C)[C@@H](CC(C)C)C(=O)N(C)[C@H](C)C(=O)N[C@@H](CC(C)C)C(=O)N2CCC[C@@H]2C(=O)O[C@@H]1C: PAMPA -6.32 (log10 cm/s)
* CC(=O)N1CCC[C@@H]1C(=O)N(C)[C@@H](CC(C)C)C(=O)N[C@@H]1C(=O)N[C@H](CC(C)C)C(=O)N(C)[C@@H](CC(C)C)C(=O)N[C@@H](CC(C)C)C(=O)N[C@@H](C)C(=O)N[C@H](CC(C)C)C(=O)N2CCC[C@H]2C(=O)O[C@@H]1C: PAMPA -6.12 (log10 cm/s)

The first 2 entries again:

compound	PAMPA (log10 cm/s)
CC(=O)N1CCC[C@@H]1C(=O)N(C)[C@@H](CC(C)C)C(=O)N[C@@H]1C(=O)N[C@@H](CC(C)C)C(=O)N(C)[C@H](CC(C)C)C(=O)N(C)[C@@H](CC(C)C)C(=O)N(C)[C@H](C)C(=O)N[C@@H](CC(C)C)C(=O)N2CCC[C@H]2C(=O)O[C@@H]1C	-5.45
CC(=O)N1CCC[C@@H]1C(=O)N(C)[C@H](CC(C)C)C(=O)N[C@@H]1C(=O)N(C)[C@@H](CC(C)C)C(=O)N(C)[C@@H](CC(C)C)C(=O)N(C)[C@H](CC(C)C)C(=O)N(C)[C@@H](C)C(=O)N[C@H](CC(C)C)C(=O)N2CCC[C@@H]2C(=O)O[C@@H]1C	-5.09